# Test results: publication PMC12643529 (ACS Infectious Diseases, 2025)
# Legend:
# [1] = system: promastigote form of L. major; experiment: MTT-based antileishmanial assay, promastigotes; format: cell-based, Leishmania major; details: SI = IC50 MRC-5/IC50 L. major promastigotes
# Protocol: The antileishmanial activity of the compounds against the promastigote form of L. major, the […] was determined using an MTT-based assay (Sigma-Aldrich). Stock solutions of the compounds were prepared in DMSO with the final DMSO percentage in each well maintained below 1%. 4 × 10^6 parasites per mL were incubated at 28 °C in 96-well plates (50 μL/well) either alone or in the presence of increasing concentrations of compounds DMSO for 72 h. After the incubation period, 10 μL of MTT (5 mg/mL) was added to each well, and the parasites were incubated for 4 h at 28 °C. Subsequently, cell lysis was performed using 50 μL/well of 20% SDS. […] Data were presented as the average of at least three independent measurements, each conducted under triplicate conditions. […] “single marker” […] S7
# BSF T. brucei parasites = experiment: CellTiter-Glo luminescent cell viability assay; format: cell-based, Trypanosoma brucei; details: SI = IC50 MRC-5/IC50 T. brucei
# [2] = system: bloodstream form of T. brucei; experiment: alamarBlue (resazurin) antitrypanosomal assay; format: cell-based, Trypanosoma brucei; details: SI = IC50 MRC-5/IC50 T. brucei (resazurin assay)
smiles,measurement,setting,value
"Cc1ccc2c(c1)sc(-c1ccc(N(C)C)cc1)[n+]2C [ThT, Thioflavin T]",selectivity index (SI) L. major,[1],7.9
same,selectivity index (SI) T. brucei (CellTiter-Glo),BSF T. brucei parasites,2.95
same,selectivity index (SI) T. brucei,[2],38.9
